The chains behind the UniProt entries cited, without tags or fusion partners.
UniProt B4E5Y7, entry or part of it: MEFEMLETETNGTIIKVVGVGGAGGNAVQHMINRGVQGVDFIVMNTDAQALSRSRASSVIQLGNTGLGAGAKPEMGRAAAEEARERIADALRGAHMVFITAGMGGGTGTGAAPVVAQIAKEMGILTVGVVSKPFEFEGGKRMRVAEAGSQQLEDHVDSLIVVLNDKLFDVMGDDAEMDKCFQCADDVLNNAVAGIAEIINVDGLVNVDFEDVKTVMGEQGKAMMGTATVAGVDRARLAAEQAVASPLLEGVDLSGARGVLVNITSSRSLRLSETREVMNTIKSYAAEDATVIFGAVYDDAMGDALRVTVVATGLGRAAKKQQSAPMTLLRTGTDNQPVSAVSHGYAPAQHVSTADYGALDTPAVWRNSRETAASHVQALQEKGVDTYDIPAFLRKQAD

In paper PMC7154053, “Chemical, Metabolic, and Cellular Characterization of a FtsZ Inhibitor Effective Against Burkholderia cenocepacia” (Frontiers in Microbiology, 2020):

Key:
[1] = target: Burkholderia cenocepacia purified FtsZ protein (Burkholderia cenocepacia, UniProt B4E5Y7); test: biochemical
Experimental: All the recombinant FtsZ proteins were expressed at 20°C overnight in E. coli BL21(DE3) cells, upon induction with 0.5 mM IPTG, and purified using the same protocol assessed for the wild-type B. cenocepacia FtsZ (Hogan et al., [2018]).
GTPase enzyme activity was determined using a pyruvate kinase/L-lactic dehydrogenase (PK/LDH) spectrophotometric coupled assay (Ingerman and Nunnari, [2005]). The assays were performed at 30°C, in a reaction mixture containing […] Hepes pH 7.5, 5 mM MgCl2, 5 mM KCl, 10 U PK/LDH, 0.25 mM NADH, 0.25 mM PEP, and 5–10 μM FtsZ, and initiated by the addition of 0.5 mM GTP. Alternatively, GTPase activity was determined by measuring the release of phosphate using the malachite green assay (Baykov et al., [1988]).
(1) A[I]=A[0]×(1-[I]/[I]+IC50)
where A[I] is the enzyme activity at inhibitor concentration [I] and A[0] is the enzyme activity without inhibitor.

[2] = target: T1, B. cenocepacia nitroreductase BCAL0539 (BcNR) (Burkholderia cenocepacia, UniProt B4E8I2); test: BcNR nitroreductase steady-state kinetics (NADPH decrease at 340 nm); assay type: biochemical; conditions: C109 vs 4-nitrobenzoic acid
T1 sequence (B4E8I2 1-242): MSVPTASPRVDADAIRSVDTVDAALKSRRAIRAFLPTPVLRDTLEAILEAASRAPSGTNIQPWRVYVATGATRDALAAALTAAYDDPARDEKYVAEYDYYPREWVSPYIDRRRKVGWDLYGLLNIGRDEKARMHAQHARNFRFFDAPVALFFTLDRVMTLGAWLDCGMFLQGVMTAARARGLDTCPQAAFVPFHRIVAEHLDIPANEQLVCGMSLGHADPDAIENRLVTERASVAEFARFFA
Experimental: Enzyme activity assay was determined at 37°C using 4-nitrobenzoic acid or C109 as a substrate and NADPH as cofactor, by measuring the decrease in absorbance at 340 nm of NADPH (ε = 6,220 M^−1 cm^−1). The reaction mixture typically contained 50 mM potassium phosphate pH 8.0, 50 mM KCl, 5–10 μM BcNR, and reactions were started by adding the substrate. Steady-state kinetics parameters were determined by assaying the enzyme at variable concentrations of substrate (10–500 μM). The experiments were performed in triplicate, and the kinetic constants Km and kcat determined by fitting the data to the Michaelis-Menten equation using Origin 8 software.

In the case of `COC(=O)CSc1ccc2nsnc2c1[N+](=O)[O-]` [C109, methyl [(4-nitro-2,1,3-benzothiadiazol-5-yl)thio]acetate], the IC50 [1] is reported as 8 µM, the “Km, fold lower than for 4-nitrobenzoic acid” value [2] is reported as “about 2 fold” and the “Vmax, fold higher than for 4-nitrobenzoic acid” value [2] is reported as 10 fold. For the same molecule, the “specificity constant, fold higher than for 4-nitrobenzoic acid” value [2] was “about 20 fold”.
